In one experiment the target is T1, human ferroportin (Homo sapiens, UniProt Q9NP59).
T1 construct: expressed in transfected cells
T1 sequence (Q9NP59 1-571): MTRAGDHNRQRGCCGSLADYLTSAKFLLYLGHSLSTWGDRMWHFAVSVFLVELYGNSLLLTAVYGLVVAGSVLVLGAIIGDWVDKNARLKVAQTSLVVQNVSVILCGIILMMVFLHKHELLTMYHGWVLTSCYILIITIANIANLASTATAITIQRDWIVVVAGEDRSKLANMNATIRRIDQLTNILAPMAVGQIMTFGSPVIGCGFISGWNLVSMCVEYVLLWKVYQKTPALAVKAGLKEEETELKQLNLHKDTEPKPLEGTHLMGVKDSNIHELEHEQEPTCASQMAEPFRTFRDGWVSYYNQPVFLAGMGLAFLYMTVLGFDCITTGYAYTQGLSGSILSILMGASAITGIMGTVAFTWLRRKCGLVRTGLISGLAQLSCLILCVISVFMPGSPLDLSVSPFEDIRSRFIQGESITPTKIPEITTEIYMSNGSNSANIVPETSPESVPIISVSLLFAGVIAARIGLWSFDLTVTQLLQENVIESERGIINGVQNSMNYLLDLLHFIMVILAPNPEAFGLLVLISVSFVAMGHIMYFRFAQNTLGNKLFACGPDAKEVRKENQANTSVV
Description: FPN activity assay: internalization/degradation of ferroportin-GFP in stably transfected HEK293 cells (decrease in GFP fluorescence). The experiment is classed as cell-based. The protocol:
Following internalization, the ferroportin protein is degraded.
A retro inverse peptide is a peptide with a reversed sequence in all D amino acids. An example is that Hy-Glu-Thr-His-NH2 becomes Hy-DHis-DThr-DGlu-NH2. The EC50 of these reference compounds for ferroportin internalization/degradation was determined according to the FPN activity assay described above. These peptides served as control standards.
These values were determined as described herein.

Experiment [1] deals with T2, ferroportin (endogenously expressed in T47D cells) (Homo sapiens, UniProt Q9NP59).
T2 construct: is a human breast carcinoma adherent cell line which endogenously expresses ferroportin; host or cells: T47D
T2 sequence (Q9NP59 1-571): T1 sequence (Q9NP59 1-571)
The experiment in a line: T47D cell-based ferroportin internalization assay in presence of 0.5% mouse serum albumin (AF647-conjugated detection peptide, flow cytometry).

[2] abbreviates: Table 2A, HEK293 cells expressing human ferroportin-GFP, at least 18 hours incubation, read-out: FPN EC50.
[3] abbreviates: read-out: IC50: T47D Internalization MSA.
Setting [4] is: Table 2B, HEK293 cells expressing human ferroportin-GFP, at least 18 hours incubation, read-out: FPN EC50.
[5] abbreviates: Table 2C, class symbols, read-out: FPN IC50.
Setting [6] is: read-out: T47D IC50, Table 2C, class symbols.

Like-named read-outs stand apart in the source and are kept apart here.

In general, IC50 refers to the concentration needed to halve the response being measured. For “Isovaleric Acid-E-T-H-[Dpa]-P-[Cys]-I-[Lys(2Peg11′_IsoGlu_C18_Diacid)]-[bhPhe]-[(D)Lys]-[Cys]-NH2 [Compound 110]”, at human ferroportin (setting [2]), the DC50 turned out to be 25.4 nM. Also, in experiment [1] (setting [3]), the IC50 was 269 nM.
For “Isovaleric Acid-E-T-H-[Dpa]-P-[Cys]-I-[Lys(2Peg11′_IsoGlu_C20_Diacid)]-[bhPhe]-[(D)Lys]-[Cys]-NH2 [Compound 111]” the same measures were 39.4 nM and 230 nM.
Consider “Isovaleric Acid-E-T-H-[Dpa]-P—C—I-[Lys(1PEG2_1PEG2_Ahx_C18_Diacid)]-[bhPhe]-[(D)Lys(Ac-C—NH2 [Compound 290]”, for which, on human ferroportin (setting [4]), the DC50 came to 27.4 nM. In addition, the IC50 in experiment [1] (setting [3]) is 61.6 nM.
For “Isovaleric Acid-E-T-H-[Dpa]-P—C—I-[Lys(1PEG2_1PEG2_IsoGlu_C12_Diacid)]-[bhPhe]-[(D)Lys]-C—NH2 [Compound 234]” the same measures were 11.5 nM and 51.2 nM.
For the substance “Isovaleric Acid-E-T-H-[Dpa]-P—C—I-[Lys(1PEG2_1PEG2_IsoGlu_C14_Diacid)]-[bhPhe]-[(D)Lys]-C—NH2 [Compound 233]”, the DC50 on human ferroportin (setting [4]) amounted to 12.2 nM. The IC50 in experiment [1] (setting [3]) was found to be 63.5 nM.
For “Isovaleric Acid-E-T-H-[Dpa]-P—C—I-[Lys(1PEG2_1PEG2_IsoGlu_C16_Diacid)]-[bhPhe]-[(D)Lys]-C—NH2 [Compound 232]” the same measures were 16.4 nM and 50.4 nM.
For “Isovaleric Acid-E-T-H-[Dpa]-P—C—I-[Lys(PEG4_IsoGlu_C18_Diacid)]-[bhF]-[(D)Lys]-C—NH2 [Compound 239]” the same measures were 29 nM and 116 nM.
The like results for “Isovaleric Acid-E-T-H-[Dpa]-P—C—I-[Lys(PEG12_Ahx_C18 acid)]-[bhPhe]-[(D)Lys]-C—NH2 [Compound 307]” were, in that order, 10.6 nM and 0.89 nM.
With “Isovaleric Acid-E-T-H-[Dpa]-P—C—I-[Lys(PEG12_C16_Diacid)]-[bhPhe]-[(D)Lys]-C—NH2 [Compound 265]”, the DC50 at human ferroportin (setting [4]) stood at 10.7 nM. Moreover, the IC50 in experiment [1] (setting [3]) stood at 31.3 nM.
“Isovaleric Acid-E-T-H-[Dpa]-P—C—I-[Lys(PEG12_C18_Diacid)]-[bhPhe]-[(D)Lys(PEG11_OMe)]—C—NH2 [Compound 293]”: at human ferroportin (setting [4]), the DC50 stood at 25.4 nM. In addition, in experiment [1] (setting [3]), the IC50 came out at 58.2 nM.
For “Isovaleric Acid-E-T-H-[Dpa]-P—C—I-[Lys(PEG12_IsoGlu_Palm)]-[bhPhe]-[(D)Lys(PEG11_OMe)]—C—NH2 [Compound 291]”, the DC50 on human ferroportin (setting [4]) amounted to 12.2 nM. Besides, in experiment [1] (setting [3]), the 50% inhibitory concentration (IC50) was found to be 2.22 nM.
For “Isovaleric Acid-E-T-H—F—P—C—I-[Lys(1PEG2_1PEG2_IsoGlu_C18_Diacid)]-F-E-P—R—S—K-G-[Pen]-K—NH2 [Compound 205]” the same measures were 260 nM and 349 nM.
For “Isovaleric Acid-E-T-H—F—P—C—I-[Lys(IsoGlu_Palm)]-F-E-P-[Lys(Ac)]-S—K-G-C—K—NH2 [Compound 228]” the same measures were 12 nM and 31.7 nM.
The like results for “Isovaleric Acid-[IsoGlu]-T-H-[Dpa]-P—C—I-[Lys(1PEG2_1PEG2_Ahx_C18_Diacid)]-[bhPhe]-[(D)Lys]-C—NH2 [Compound 299]” were, in that order, 22 nM and 69 nM.
Turning to “[Isovaleric Acid]-E-L-H-[Dpa]-P—C—I-[(D)Lys]-[bhPhe]-[Lys(Ahx_Palm)]-[(D)Lys]-C—NH2 [Compound 617]”, at human ferroportin (setting [5]), the DC50 was in the range of 31 to 100 nM. Also, the IC50 in experiment [1] (setting [6]) lay within 11 to 100 nM.
For “[Isovaleric Acid]-E-S-H-[Dpa]-P—C—I-[(D)Lys]-[aMePhe]-[Lys(PEG12_Palm)]-[(D)Lys]-C—NH2 [Compound 611]” the same measures were > 500 nM and 11 to 100 nM.
On to “[Isovaleric Acid]-E-T-A-[Dpa]-P—C—I-[(D)Lys]-[bhPhe]-[Lys(Ahx_Palm)]-[(D)Lys]-C—NH2 [Compound 614]”, for which the DC50 on human ferroportin (setting [5]) fell in the range of 1 to 30 nM. Moreover, the 50% inhibitory concentration (IC50) in experiment [1] (setting [6]) is 11 to 100 nM.

For the origin of these results see US20230295259A1 (Protagonist Therapeutics, Inc., priority 2020, published 2023).
